Experimental findings from patent publication US8637557B2, “Aminothiazole derivative” (Taisho Pharmaceutical Co., Ltd, priority 2009, dated 2014) are described below.

Amino acid sequences for entries named in this document (tags omitted).
UniProt P48736, whole entry: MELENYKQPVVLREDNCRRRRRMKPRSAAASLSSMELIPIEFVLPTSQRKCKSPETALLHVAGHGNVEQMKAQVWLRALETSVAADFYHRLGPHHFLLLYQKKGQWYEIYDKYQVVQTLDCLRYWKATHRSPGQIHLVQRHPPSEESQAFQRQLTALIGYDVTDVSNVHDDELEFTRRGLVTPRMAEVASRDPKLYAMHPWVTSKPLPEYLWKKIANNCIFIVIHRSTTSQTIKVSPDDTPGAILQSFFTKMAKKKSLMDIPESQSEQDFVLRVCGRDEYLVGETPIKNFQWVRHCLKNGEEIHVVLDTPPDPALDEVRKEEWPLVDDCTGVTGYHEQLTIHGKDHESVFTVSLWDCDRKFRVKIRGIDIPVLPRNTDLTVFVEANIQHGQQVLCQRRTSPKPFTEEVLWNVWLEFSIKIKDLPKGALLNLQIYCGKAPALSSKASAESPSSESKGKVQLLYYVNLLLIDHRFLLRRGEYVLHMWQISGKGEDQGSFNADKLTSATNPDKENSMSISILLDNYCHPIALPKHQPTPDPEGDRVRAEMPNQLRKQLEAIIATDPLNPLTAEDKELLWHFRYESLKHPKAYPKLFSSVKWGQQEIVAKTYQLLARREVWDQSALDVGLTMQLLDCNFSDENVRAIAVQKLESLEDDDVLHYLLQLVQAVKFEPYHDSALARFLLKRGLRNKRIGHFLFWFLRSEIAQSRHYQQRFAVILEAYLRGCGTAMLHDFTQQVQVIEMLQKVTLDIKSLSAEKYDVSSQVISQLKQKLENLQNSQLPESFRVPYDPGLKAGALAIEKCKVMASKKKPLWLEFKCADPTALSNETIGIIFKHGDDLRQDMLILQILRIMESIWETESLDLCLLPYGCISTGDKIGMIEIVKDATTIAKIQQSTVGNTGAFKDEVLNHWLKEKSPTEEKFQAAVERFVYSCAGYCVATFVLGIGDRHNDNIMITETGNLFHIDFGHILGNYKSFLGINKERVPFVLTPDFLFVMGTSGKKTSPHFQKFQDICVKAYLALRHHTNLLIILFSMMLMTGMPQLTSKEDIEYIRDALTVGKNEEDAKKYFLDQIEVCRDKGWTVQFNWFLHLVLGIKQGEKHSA

This assay has as its target human PI 3-kinase p120γ (Homo sapiens, UniProt P48736). Nature of the assay: PI 3-kinase p120γ enzyme activity inhibition test. The following applies: read-out: PI3Kγ (IC50 value class); ATP 10.0 μM, PIP2-PS 5.0 μM, 30° C., 2 hours.
Regarding `COCCOCc1noc(-c2sc(NC(C)=O)nc2C)n1`, the half-inhibitory concentration (IC50) is 500 to 10000 nM. For `CC(=O)Nc1nc(C)c(-c2nc(C[C@@H](C)CO)no2)s1` the value was less than 100 nM; for `Cc1nc(NC(=O)NCCC(=O)NC(CO)(CO)CO)sc1-c1nc(-c2cccnc2)no1`, less than 100 nM.

Consider `Cc1nc(NC(=O)NCCC(=O)OC(C)(C)C)sc1-c1nc(CS(C)(=O)=O)no1`, for which the IC50 is less than 100 nM.
